Key:
MDA-MB231 = MDA-MB231 growth inhibition (GI50); format: cell-based, human; conditions: read-out: MDA-MB231 GI50
CDK12 = CDK12 (Homo sapiens, UniProt Q9NYV4); experiment: CDK12 functional (kinase inhibition) assay; format: biochemical; conditions: read-out: CDK12 IC50
HiBiT-tagged cyclin K = experiment: HiBiT cyclin K degradation assay (DC50, Dmax); conditions: read-out: CCNK DC50; cell-based assay

Sequences of proteins named here, by UniProt entry; tags and fusion partners are left off.
UniProt Q9NYV4, whole entry: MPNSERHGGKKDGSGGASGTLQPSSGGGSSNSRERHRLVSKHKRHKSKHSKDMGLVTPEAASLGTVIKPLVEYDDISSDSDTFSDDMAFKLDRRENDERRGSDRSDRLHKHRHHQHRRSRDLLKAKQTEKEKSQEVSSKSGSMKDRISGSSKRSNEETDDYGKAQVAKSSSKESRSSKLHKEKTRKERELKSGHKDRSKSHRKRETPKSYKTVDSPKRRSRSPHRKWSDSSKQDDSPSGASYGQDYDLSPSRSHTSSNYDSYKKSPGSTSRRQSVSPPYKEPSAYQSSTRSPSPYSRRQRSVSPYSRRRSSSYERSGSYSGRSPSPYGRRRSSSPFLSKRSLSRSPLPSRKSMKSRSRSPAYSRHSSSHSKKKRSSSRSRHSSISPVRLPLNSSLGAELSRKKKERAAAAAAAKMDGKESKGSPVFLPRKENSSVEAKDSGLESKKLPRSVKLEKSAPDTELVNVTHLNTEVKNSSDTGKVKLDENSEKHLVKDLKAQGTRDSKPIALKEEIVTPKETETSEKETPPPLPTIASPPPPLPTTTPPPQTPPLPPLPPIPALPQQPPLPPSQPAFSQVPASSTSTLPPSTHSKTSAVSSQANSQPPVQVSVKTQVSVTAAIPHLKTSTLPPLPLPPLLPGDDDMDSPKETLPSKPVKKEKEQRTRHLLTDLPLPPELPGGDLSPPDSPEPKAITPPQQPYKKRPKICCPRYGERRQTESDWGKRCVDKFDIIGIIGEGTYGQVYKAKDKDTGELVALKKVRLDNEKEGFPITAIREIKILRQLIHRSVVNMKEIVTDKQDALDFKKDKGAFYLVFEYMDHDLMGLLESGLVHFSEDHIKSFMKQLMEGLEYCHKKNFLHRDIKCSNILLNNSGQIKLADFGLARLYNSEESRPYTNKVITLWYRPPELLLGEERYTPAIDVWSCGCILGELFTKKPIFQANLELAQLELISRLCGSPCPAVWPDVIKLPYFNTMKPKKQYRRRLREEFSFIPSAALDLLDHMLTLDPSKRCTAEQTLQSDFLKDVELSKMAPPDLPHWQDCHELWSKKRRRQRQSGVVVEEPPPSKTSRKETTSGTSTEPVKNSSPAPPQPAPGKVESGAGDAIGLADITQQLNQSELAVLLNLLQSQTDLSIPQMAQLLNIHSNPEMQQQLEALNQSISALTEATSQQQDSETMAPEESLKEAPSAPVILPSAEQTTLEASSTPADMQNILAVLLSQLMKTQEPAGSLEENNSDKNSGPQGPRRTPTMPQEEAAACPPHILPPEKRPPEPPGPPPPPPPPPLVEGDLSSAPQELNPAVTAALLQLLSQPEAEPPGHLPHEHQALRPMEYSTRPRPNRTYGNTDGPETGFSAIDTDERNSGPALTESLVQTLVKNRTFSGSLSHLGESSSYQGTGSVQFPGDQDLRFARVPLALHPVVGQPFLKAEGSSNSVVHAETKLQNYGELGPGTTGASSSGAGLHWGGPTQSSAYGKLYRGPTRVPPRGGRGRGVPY
UniProt O75909, whole entry partner: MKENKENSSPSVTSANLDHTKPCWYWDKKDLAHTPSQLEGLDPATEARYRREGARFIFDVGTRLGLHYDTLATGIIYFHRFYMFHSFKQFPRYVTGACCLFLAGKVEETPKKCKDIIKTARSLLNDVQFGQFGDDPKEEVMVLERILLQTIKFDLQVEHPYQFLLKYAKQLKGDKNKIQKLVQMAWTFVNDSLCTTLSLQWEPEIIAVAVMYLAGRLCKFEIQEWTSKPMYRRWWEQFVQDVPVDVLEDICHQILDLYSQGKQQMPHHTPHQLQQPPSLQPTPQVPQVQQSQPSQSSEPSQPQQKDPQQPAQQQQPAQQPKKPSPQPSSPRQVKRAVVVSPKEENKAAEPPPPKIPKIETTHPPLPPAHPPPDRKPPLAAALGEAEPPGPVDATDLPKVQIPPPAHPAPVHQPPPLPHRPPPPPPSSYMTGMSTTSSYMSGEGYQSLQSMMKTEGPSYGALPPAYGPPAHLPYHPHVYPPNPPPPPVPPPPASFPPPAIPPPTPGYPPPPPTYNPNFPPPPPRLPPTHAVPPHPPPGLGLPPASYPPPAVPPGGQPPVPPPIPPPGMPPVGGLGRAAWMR

GI50 (MDA-MB231): 5.8 µM
IC50 (CDK12): 2.6 µM
DC50 (HiBiT-tagged cyclin K): > 5 µM
Compound: Cn1cc(-n2cnc3c(NCc4ccc(-c5ccccn5)cc4)nc(N4CCOCC4)nc32)cn1
